# “And” between values parts separate entries of the source, which are not always exact repeats. Identical values can stand only once.
# How the values were obtained:
# HSV-1 = test: Virucidal activity, CPE inhibition assay (HSV-1 pretreated with compounds); type: cell-based, HSV-1 strain L2; settings: ratio of CC50 to IC50; virucidal scheme
# Procedure: The antiviral activity of polyphenols from M. amurensis against HSV-1 was assessed using the cytopathic effect inhibition (CPE) assay. To study the inhibitory effect of polyphenolic compounds directly on the HSV-1 virus (direct virucidal activity), the monolayer of Vero cells grown on 96-well plates (1 × 10^4 cells/well) was infected with the virus (100 TCD50/mL), pretreated with different concentrations of polyphenolic compounds.
# The HSV-1 strain L2 obtained from N.F. Gamaleya Federal Research Centre for Epidemiology and Microbiology (Moscow, Russia) was grown in Vero cells as previously described.
# We determined the direct inhibitory effect of polyphenolic compounds from M. amurensis heartwood on HSV-1 (virucidal effect). We mixed the virus at an infectious dose (100 TCID50/mL) with polyphenolic compounds (from 0.1 to 100 µg/mL) at a ratio of 1:1 (v/v) and incubated for an hour at 37 °C. Then, we infected the monolayer of Vero cells grown on 96-well plates (1 × 10^4 cells/well) with HSV-1 pretreated with the studied compounds. […]
# We previously described this method in detail in [22]. […] The viral inhibition rate (IR, %) was calculated according to Equation (1):(1) IR, %=Atv−Acv/Acd−Acv×100, where Atv is the absorbance of cells infected with HSV-1 pretreated with the studied compounds,
# We calculated the selectivity index (SI) as the ratio of CC50 to IC50. […]
# [1] = Cytotoxicity against Vero cells (MTT assay); settings: African green monkey
# Procedure: We prepared the stock solutions of the tested compounds (10 mg/mL) in DMSO (Sigma, St. Louis, MO, USA). For the MTT assay and further studies of anti-HSV-1 activity, we diluted the stock solutions with DMEM so that the final concentration of DMSO was 0.5%.
# We used MTT assay to determine the cytotoxic effect of the tested compounds against Vero cells. We performed the MTT assay as previously described.
compound,measurement,setting,value
"O=c1c(-c2ccc(O)cc2)coc2cc(O)cc(O)c12 [Compound 2, genistein]",SI,HSV-1,8.0 and 8.0 ± 1.0
same,CC50,[1],134 µg/mL and 496 µM

# Reference: paper PMC11050087, “Polyphenols from Maackia amurensis Heartwood Protect Neuronal Cells from Oxidative Stress and Prevent Herpetic Infection” (International Journal of Molecular Sciences, 2024)
